Reference: patent US20110319427A1, “USE OF 5AHQ AND BORTEZOMIB FOR THE TREATMENT OF HEMATOLOGICAL DISEASES” (priority 2009, published 2011)
Where two headings read alike, the source gives them in different places.

System: THP1/BTZ200

Nc1ccc(O)c2ncccc12 [5AHQ, 5-amino-8-hydroxyquinoline]
RF 5AHQ (Resistance Factor) (THP1/BTZ200 (+)): 1.7 | RF 5AHQ (Resistance Factor) (THP1/BTZ200 (−)): 1.7
